Assay results published in US8778951B2, “Heteroaryl compounds and their uses” (Novartis AG, priority 2009, dated 2014).

The chains behind the UniProt entries cited, without tags or fusion partners.
UniProt P50750, whole entry: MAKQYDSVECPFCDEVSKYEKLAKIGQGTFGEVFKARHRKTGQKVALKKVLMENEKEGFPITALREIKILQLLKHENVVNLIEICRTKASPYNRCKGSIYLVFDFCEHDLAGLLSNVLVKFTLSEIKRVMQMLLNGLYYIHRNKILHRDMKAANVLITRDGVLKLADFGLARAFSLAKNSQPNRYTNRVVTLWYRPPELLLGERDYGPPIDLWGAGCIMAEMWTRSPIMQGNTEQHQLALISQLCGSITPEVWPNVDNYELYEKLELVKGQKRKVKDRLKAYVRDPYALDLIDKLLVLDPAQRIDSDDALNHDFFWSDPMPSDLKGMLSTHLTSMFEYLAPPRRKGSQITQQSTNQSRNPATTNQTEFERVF

Target: Cdk9/cyclinT1 (Homo sapiens (Human), UniProt P50750)
Experiment: Cdk9/CyclinT1 IMAP Protocol (fluorescence polarization kinase assay)
Assay type: biochemical
Details: Table 2; generated using one of the two Cdk9/cyclinT1 assays (IMAP or Alpha Screen), not specified which; unit inferred
Method: Cdk9/CyclinT1 IMAP Protocol
The biological activity of the compounds of the invention can be determined using the assay described below.
Cdk9/cyclinT1 is purchased from Millipore, cat #14-685. The final total protein concentration in the assay 4 nM. […] The final concentration of peptide substrate is 100 nM. The ATP substrate (Adenosine-5′-triphosphate) is purchased from Roche Diagnostics, cat#1140965. The final concentration of ATP substrate is 6 uM. IMAP (Immobilized Metal Assay for Phosphochemicals) Progressive Binding reagent is purchased from Molecular Devices, cat#R8139. Fluorescence polarization (FP) is used for detection. The 5TAMRA-cdk7tide peptide is phosphorylated by Cdk9/cyclinT1 kinase using the ATP substrate. The Phospho-5TAMRA-cdk7tide peptide substrate is bound to the IMAP Progressive Binding Reagent. The binding of the IMAP Progressive Binding Reagent changes the fluorescence polarization of the 5TAMRA-cdk7tide peptide which is measured at an excitation of 531 nm and FP emission of 595 nm. Assays are carried out in 100 mM Tris, pH=7.2, mM MgCl2, 0.05% NaN3, 0.01% Tween-20, 1 mM dithiothreitol and 2.5% dimethyl sulfoxide. IMAP Progressive Binding Reagent is diluted 1:800 in 100% 1× Solution A from Molecular Devices, cat#R7285.
General protocol is as follows: To 10 ul of cdk9/cyclinT1, 0.5 ul of test compound in dimethyl sulfoxide is added. 5TAMRA-cdk7tide and ATP are mixed. 10 ul of the 5TAMRA-cdk7tide/ATP mix is added to start the reaction. The reaction is allowed to proceed for 4.5 hrs. 60 uL of IMAP Progressive Binding Reagent is added. After >1 hr of incubation, plates are read on the Envision 2101 from Perkin-Elmer. The assay is run in a 384-well format using black Corning plates, cat#3573.

IC50 [nM]	Structure (SMILES)
7.95	CN(C)[C@H]1CC[C@H](Nc2cc(-c3cccc(NCc4cccc(F)c4)n3)c(Cl)cn2)CC1 [Compound 18, 5′-chloro-N2′-(trans-4-(dimethylamino)cyclohexyl)-N6-(3-fluorobenzyl)-2,4′-bipyridine-2′,6-diamine]
1	FC(F)(F)OCCN[C@H]1CC[C@H](Nc2cc(-c3nc(NCC4CCOCC4)ccc3Cl)c(Cl)cn2)CC1 [Compound 302, 3,5′-dichloro-N6-((tetrahydro-2H-pyran-4-yl)methyl)-N2′-(trans-4-(2-(trifluoromethoxy)ethylamino)cyclohexyl)-2,4′-bipyridine-2′,6-diamine]
2	COC[C@@H](C)N[C@H]1CC[C@H](Nc2cc(-c3cccc(NC[C@@H]4CCOC(C)(C)C4)n3)c(Cl)cn2)CC1 [Compound 330]
18.8	O=C(O)[C@H]1CC[C@@H](Nc2cc(-c3cccc(NCc4cccc(F)c4)n3)c(Cl)cn2)C1 [Compound 202]
7.95	CCNC[C@H]1CC[C@@H](Nc2cc(-c3cccc(NCc4cccc(F)c4)n3)c(Cl)cn2)C1 [Compound 236]
7.94	Clc1cnc(N[C@H]2CC[C@H](NC[C@@H]3CCCO3)CC2)cc1-c1nc(NCC2CCOCC2)ccc1Cl [Compound 270]
7.95	OC[C@H]1CC[C@@H](Nc2cc(-c3cccc(NCc4cccc(F)c4)n3)c(Cl)cn2)C1 [Compound 220]
279	O[C@H]1CC[C@H](Nc2cc(-c3cccc(NC[C@H]4CCCO4)n3)c(Cl)cn2)CC1 [Compound 125]
0.17	CCCN[C@H]1CC[C@H](Nc2cc(-c3ccc(F)c(NCC4(C#N)CCOCC4)n3)c(Cl)cn2)CC1 [Compound 342]
7.95	NC[C@@H]1CC[C@H](Nc2cc(-c3cccc(NCc4cccc(F)c4)n3)c(Cl)cn2)C1 [Compound 237]
110	Fc1cccc(CNc2cccc(-c3cc(NC4CC=CCC4)ncc3Cl)n2)c1 (stereo not shown) [Compound 185]
1	COCCN[C@H]1CC[C@H](Nc2cc(-c3nc(NCC4CCOCC4)ccc3F)c(Cl)cn2)CC1 [Compound 283, 5′-chloro-3-fluoro-N2′-(trans-4-(2-methoxyethylamino)cyclohexyl)-N6-((tetrahydro-2H-pyran-4-yl)methyl)-2,4′-bipyridine-2′,6-diamine]
41.7	CNC(=O)[C@@H]1CC[C@H](Nc2cc(-c3cccc(NCc4cccc(F)c4)n3)c(Cl)cn2)C1 [Compound 214]
21	Fc1cccc(CNc2cccc(-c3cc(NCC4CCCOC4)ncc3Cl)n2)c1 (stereo not shown) [Compound 176]
7.94	CNC(=O)[C@H]1CC[C@@H](Nc2cc(-c3cccc(NCc4cccc(F)c4)n3)c(Cl)cn2)C1 [Compound 204]
169	OC1CCN(c2cccc(-c3cc(N[C@H]4CC[C@H](O)CC4)ncc3Cl)n2)CC1 [Compound 130]
1	COC[C@@H](C)N[C@H]1CC[C@H](Nc2cc(-c3nc(NCC4CCOCC4)ccc3Cl)c(Cl)cn2)CC1 [Compound 291, 5′-chloro-N2′-(trans-4-((R)-1-methoxypropan-2-yl-amino)cyclohexyl)-N6-((tetrahydro-2H-pyran-4-yl)methyl)-2,4′-bipyridine-2′,6-diamine]
7.95	NCCCCNc1cc(-c2cccc(NCc3cccc(F)c3)n2)c(Cl)cn1 [Compound 145]
7.95	CNC[C@H]1CC[C@@H](Nc2cc(-c3cccc(NCc4cccc(F)c4)n3)c(Cl)cn2)C1 [Compound 235, 5′-chloro-N6-(3-fluorobenzyl)-N2′-((1R,3 S)-3-((methylamino)methyl)cyclopentyl)-2,4′-bipyridine-2′,6-diamine]
204	NCC1CCN(c2cccc(-c3cc(N[C@H]4CC[C@H](O)CC4)ncc3Cl)n2)CC1 [Compound 136]
1	CC1(CNc2nc(-c3cc(N[C@H]4CC[C@H](NC5CCS(=O)(=O)C5)CC4)ncc3Cl)ccc2F)CCOCC1 (stereo partly drawn) [Compound 332, 5′-chloro-5-fluoro-N6-((4-methyltetrahydro-2H-pyran-4-yl)methyl)-N2′-(trans-4-((1,1-dioxo-hexahydro-1-thiopyran-4-yl)-3-ylamino)cyclohexyl)-2,4′-bipyridine-2′,6-diamine]
1	COC[C@@H](C)N[C@H]1CC[C@H](Nc2cc(-c3cccc(NC[C@H]4CCOC(C)(C)C4)n3)c(Cl)cn2)CC1 [Compound 328]
7.95	NC[C@H]1CC[C@@H](Nc2cc(-c3cccc(NCc4cccc(F)c4)n3)c(Cl)cn2)C1 [Compound 234]

IC50 [nM]	Structure (SMILES)
3	COC[C@@H](C)N[C@H]1CC[C@H](Nc2cc(-c3cccc(NCC4CCOCC4)n3)c(Cl)cn2)CC1 [Compound 287]
32.6	N[C@H]1CC[C@H](Nc2cc(-c3nc(NCC4CCOCC4)ccc3Cl)ccn2)CC1 [Compound 265, N2′-(trans-4-aminocyclohexyl)-3-chloro-N6-((tetrahydro-2H-pyran-4-yl)methyl)-2,4′-bipyridine-2′,6-diamine]
45	Fc1cccc(CNc2cccc(-c3cc(N[C@H]4CC[C@H](Nc5cc(Cl)ncn5)CC4)ncc3Cl)n2)c1 [Compound 156, 5′-chloro-N2′-(trans-4-(6-chloropyrimidin-4-yl-amino)cyclohexyl)-N6-(3-fluorobenzyl)-2,4′-bipyridine-2′,6-diamine]
7.95	OC[C@@H]1CC[C@H](Nc2cc(-c3cccc(NCc4cccc(F)c4)n3)c(Cl)cn2)C1 [Compound 219]
21	N[C@H]1CC[C@H](Nc2cc(-c3cnc(C4CC4)c(NCC4CCOCC4)n3)c(Cl)cn2)CC1 [Compound 240, trans-N^1-(5-chloro-4-(5-cyclopropyl-6-((tetrahydro-2H-pyran-4-yl)methyl)aminopyrazin-2-yl)pyridin-2-yl)cyclohexane-1,4-diamine]
25.2	Fc1cccc(CNc2cccc(-c3cc(N[C@H]4CC[C@H](CN5CCCCC5)CC4)ncc3Cl)n2)c1 [Compound 110]
270	O[C@H]1CC[C@@H](Nc2cc(-c3nc(NCC4CCOCC4)ccc3Cl)c(Cl)cn2)CC1 [Compound 267]
13	Fc1cccc(CNc2cccc(-c3cc(NCCc4ccncc4)ncc3Cl)n2)c1 [Compound 177]
9	COC[C@@H](C)N[C@H]1CC[C@H](Nc2cc(-c3cccc(NCC4COCC(C)(C)O4)n3)c(Cl)cn2)CC1 (stereo partly drawn) [Compound 316, 5′-chloro-N6-((6,6-dimethyl-1,4-dioxan-2-yl)methyl)-N2′-(trans-4-((R)-1-methoxypropan-2-yl-amino)cyclohexyl)-2,4′-bipyridine-2′,6-diamine]
7.95	NC[C@H]1CC[C@H](Nc2cc(-c3cccc(NCc4cc(F)cc(F)c4)n3)c(Cl)cn2)CC1 [Compound 65]
2740	CC(C)(C)OC(=O)CNc1cc(-c2cccc(NCc3cccc(F)c3)n2)c(Cl)cn1 [Compound 187]
0.43	N#CC1(CNc2cccc(-c3cc(N[C@H]4CC[C@H](NC5CCOCC5)CC4)ncc3Cl)n2)CCOCC1 [Compound 363, 4-((5′-chloro-2′-((1r,4r)-4-(tetrahydro-2H-pyran-4-ylamino)cyclohexylamino)-2,4′-bipyridin-6-ylamino)methyl)tetrahydro-2H-pyran-4-carbonitrile]
812	O=C(O)CNc1cc(-c2cccc(NCc3cccc(F)c3)n2)c(Cl)cn1 [Compound 196]
1	COCCN[C@H]1CC[C@H](Nc2cc(-c3cccc(NCC4(CO)CCOCC4)n3)c(Cl)cn2)CC1 [Compound 350]
7.95	O[C@H]1CC[C@H](Nc2cc(-c3cccc(NCc4ccncc4)n3)c(Cl)cn2)CC1 [Compound 122]
7.95	N[C@H]1CC[C@H](Nc2cc(-c3ccc(F)c(NCc4cccc(F)c4)n3)c(Cl)cn2)CC1 [Compound 12, N2′-(trans-4-aminocyclohexyl)-5′-chloro-5-fluoro-N^6-(3-fluorobenzyl)-2,4′-bipyridine-2′,6-diamine]
7.95	N#Cc1cc(NCc2cccc(F)c2)nc(-c2cc(N[C@H]3CC[C@H](N)CC3)ncc2Cl)c1 [Compound 15, 2′-(trans-4-aminocyclohexylamino)-5′-chloro-6-(3-fluorobenzylamino)-2,4′-bipyridine-4-carbonitrile]
18.4	CCNC[C@@H]1CC[C@H](Nc2cc(-c3cccc(NCc4cccc(F)c4)n3)c(Cl)cn2)C1 [Compound 239]
7.95	NC[C@H]1CC[C@H](Nc2cc(-c3cccc(NCc4ccc(F)c(F)c4)n3)c(Cl)cn2)CC1 [Compound 63]
634	O=C(O)[C@@H]1CC[C@H](Nc2cc(-c3cccc(NCc4cccc(F)c4)n3)c(Cl)cn2)C1 [Compound 201]
1	COC[C@@H](C)N[C@H]1CC[C@H](Nc2cc(-c3cccc(NCC4CCOC(C)(C)C4)n3)c(Cl)cn2)CC1 (stereo partly shown) [Compound 329]
13.6	CNC[C@@H]1CC[C@H](Nc2cc(-c3cccc(NCc4cccc(F)c4)n3)c(Cl)cn2)C1 [Compound 238]

Structure (SMILES)	IC50 [nM]
N[C@H]1CC[C@H](Nc2cc(-c3cncc(NCc4cccc(F)c4)n3)ccn2)CC1 [Compound 30]	7.95
